Patent publication US9750727B2 (priority 2010, dated 2017)
Where “and” joins values, the source holds several entries; their conditions need not be identical. Identical values can stand only once.

Tests used:
M. bovis bovinus 8 = format: in vivo; details: TB drug combined with the new treatment vs TB drug monotherapy; mice
[1] = system: peritoneal macrophages (pMP); set-up: species or system mice; details: mouse, in vivo

CO[C@H]1/C=C/O[C@@]2(C)Oc3c(C)c(O)c4c(c3C2=O)C2=NC3(CCN(CC(C)C)CC3)NC2=C(NC(=O)/C(C)=C\C=C\[C@H](C)[C@H](O)[C@@H](C)[C@@H](O)[C@@H](C)[C@H](OC(C)=O)[C@@H]1C)C4=O [Rifabutin, rifabutin]
increase of the index of lung damage (morphological) (M. bovis bovinus 8): 15.9%

CC[C@@H](CO)NCCN[C@@H](CC)CO [Ethambutol, ethambutol]
improvement of the indices of lung damage (morphological) (M. bovis bovinus 8): 3.19%

NNC(=O)c1ccncc1 [Isoniazid, isonicotinic acid hydrazide]
improvement of the indices of lung damage (morphological) (M. bovis bovinus 8): 10.1%

CO[C@H]1/C=C/O[C@@]2(C)Oc3c(C)c(O)c4c(O)c(c(/C=N/N5CCN(C)CC5)c(O)c4c3C2=O)NC(=O)/C(C)=C\C=C\[C@H](C)[C@H](O)[C@@H](C)[C@@H](O)[C@@H](C)[C@H](OC(C)=O)[C@@H]1C [Rifampicin, rifampicin]
increase of pMP phagocytosis [1]: 1.4 fold
mean macrophagal activity of pMP [1]: 71.43 and 99.12

CC1COc2c(N3CCN(C)CC3)c(F)cc3c(=O)c(C(=O)O)cn1c23 (stereo not drawn) [Ofloxacin]
improvement of the indices of lung damage (morphological) (M. bovis bovinus 8): 3.24%
